Results: patent US9694016B2 (Novartis AG, priority 2013, dated 2017)

Protein sequences, listed by entry. Tags and fused reporters are not part of them.
UniProt P04049, whole entry Y340E/Y341E: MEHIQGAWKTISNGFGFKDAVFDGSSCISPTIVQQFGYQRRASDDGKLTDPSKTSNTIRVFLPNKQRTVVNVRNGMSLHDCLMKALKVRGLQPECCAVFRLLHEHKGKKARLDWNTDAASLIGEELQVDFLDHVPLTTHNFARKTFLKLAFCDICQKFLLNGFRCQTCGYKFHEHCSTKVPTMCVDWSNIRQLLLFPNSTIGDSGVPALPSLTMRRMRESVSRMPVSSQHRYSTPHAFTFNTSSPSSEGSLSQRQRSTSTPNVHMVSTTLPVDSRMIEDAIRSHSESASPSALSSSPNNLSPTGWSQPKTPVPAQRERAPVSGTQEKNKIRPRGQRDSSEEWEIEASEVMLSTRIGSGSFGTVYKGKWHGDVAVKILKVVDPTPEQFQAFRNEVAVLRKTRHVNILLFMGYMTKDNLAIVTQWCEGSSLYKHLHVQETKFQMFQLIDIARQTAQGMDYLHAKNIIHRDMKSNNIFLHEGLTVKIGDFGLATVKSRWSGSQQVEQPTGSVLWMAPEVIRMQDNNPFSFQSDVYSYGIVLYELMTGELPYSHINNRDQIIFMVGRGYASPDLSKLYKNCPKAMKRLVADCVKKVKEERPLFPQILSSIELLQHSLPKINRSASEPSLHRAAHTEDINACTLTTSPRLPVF

Target: C-Raf FL (full-length C-Raf protein, Y340E and Y341E activating mutations) (Homo sapiens (Human), UniProt P04049, Y340E/Y341E)
Format: biochemical
Details: AlphaScreen, 60 min pre-incubation, 1 hour reaction; read-out: c-Raf FL IC-50

Row | SMILES | IC50 [nM]
1 | CCC(F)(F)c1cc(C(=O)Nc2cnc(C)c(-c3cncc(N4CCOCC4)n3)c2)ccn1 [Example 537, 2-(1,1-difluoropropyl)-N-(6-methyl-5-(6-morpholinopyrazin-2-yl)pyridin-3-yl)isonicotinamide] | 0.6
2 | CCOc1ncc(-c2cc(NC(=O)c3cccc(C(F)(F)F)c3)ccc2C)nc1N1CCOCC1 [Example 538, N-(3-(5-ethoxy-6-morpholinopyrazin-2-yl)-4-methylphenyl)-3-(trifluoromethyl)benzamide] | 0.3
3 | CCOc1ncc(-c2cc(NC(=O)c3cccc(C(F)(F)F)c3)cnc2C)nc1N1CCOCC1 [Example 539, N-(5-(5-ethoxy-6-morpholinopyrazin-2-yl)-6-methylpyridin-3-yl)-3-(trifluoromethyl)benzamide] | 0.8
4 | CCOc1ncc(-c2cc(NC(=O)c3cc(CN(C)C)cc(C(F)(F)F)c3)cnc2C)nc1N1CCOCC1 [Example 545, 3-((dimethylamino)methyl)-N-(5-(5-ethoxy-6-morpholinopyrazin-2-yl)-6-methylpyridin-3-yl)-5-(trifluoromethyl)benzamide] | 3.9
5 | COc1ncc(-c2cc(NC(=O)c3ccnc(S(C)(=O)=O)c3)ccc2C)nc1N1CCOCC1 [Example 546, N-(3-(5-methoxy-6-morpholinopyrazin-2-yl)-4-methylphenyl)-2-(methylsulfonyl)isonicotinamide] | 0.8
6 | COc1nnc(-c2cc(NC(=O)c3ccnc(C(C)(F)F)c3)ccc2C)cc1N1CCOCC1 [Example 548, 2-(1,1-difluoroethyl)-N-(3-(6-methoxy-5-morpholinopyridazin-3-yl)-4-methylphenyl)isonicotinamide] | 0.3
7 | CCC(F)(F)c1cc(C(=O)Nc2ccc(C)c(-c3cc(N4CCOCC4)c(OC)nn3)c2)ccn1 [Example 549, 2-(1,1-difluoropropyl)-N-(3-(6-methoxy-5-morpholinopyridazin-3-yl)-4-methylphenyl)isonicotinamide] | 0.5
8 | COc1nnc(-c2cc(NC(=O)c3cnnc(C(F)(F)F)c3)ccc2C)cc1N1CCOCC1 [Example 551, N-(3-(6-methoxy-5-morpholinopyridazin-3-yl)-4-methylphenyl)-6-(trifluoromethyl)pyridazine-4-carboxamide] | 0.5
9 | COc1nnc(-c2cc(NC(=O)c3ccnc(C(C)(C)F)c3)ccc2C)cc1N1CCOCC1 [Example 552, 2-(2-fluoropropan-2-yl)-N-(3-(6-methoxy-5-morpholinopyridazin-3-yl)-4-methylphenyl)isonicotinamide] | 0.8
10 | COc1nnc(-c2cc(NC(=O)c3ccnc(C(C)(C)O)c3)ccc2C)cc1N1CCOCC1 [Example 556, 2-(2-hydroxypropan-2-yl)-N-(3-(6-methoxy-5-morpholinopyridazin-3-yl)-4-methylphenyl)isonicotinamide] | 1.5
11 | COc1nnc(-c2cc(NC(=O)c3cnnc(C(C)(C)C#N)c3)ccc2C)cc1N1CCOCC1 [Example 557, 6-(2-cyanopropan-2-yl)-N-(3-(6-methoxy-5-morpholinopyridazin-3-yl)-4-methylphenyl)pyridazine-4-carboxamide] | 2.2
12 | COc1nnc(-c2cc(NC(=O)c3ccnc(C(C)(C)C#N)c3)ccc2C)cc1N1CCOCC1 [Example 558, 2-(2-cyanopropan-2-yl)-N-(3-(6-methoxy-5-morpholinopyridazin-3-yl)-4-methylphenyl)isonicotinamide] | 0.7
13 | CCOc1nnc(-c2cc(NC(=O)c3cccc(S(C)(=O)=O)c3)ccc2C)cc1N1CCOCC1 [Example 559, N-(3-(6-ethoxy-5-morpholinopyridazin-3-yl)-4-methylphenyl)-3-(methylsulfonyl)benzamide] | 0.3
14 | CCOc1nnc(-c2cc(NC(=O)c3ccnc(C(F)(F)CC)c3)ccc2C)cc1N1CCOCC1 [Example 560, 2-(1,1-difluoropropyl)-N-(3-(6-ethoxy-5-morpholinopyridazin-3-yl)-4-methylphenyl)isonicotinamide] | 0.3
15 | CCOc1nnc(-c2cc(NC(=O)c3ccnc(C(F)F)c3)ccc2C)cc1N1CCOCC1 [Example 562, 2-(difluoromethyl)-N-(3-(6-ethoxy-5-morpholinopyridazin-3-yl)-4-methylphenyl)isonicotinamide] | 0.2
16 | CCOc1nnc(-c2cc(NC(=O)c3ccnc(C4CC4)c3)ccc2C)cc1N1CCOCC1 [Example 563, 2-cyclopropyl-N-(3-(6-ethoxy-5-morpholinopyridazin-3-yl)-4-methylphenyl)isonicotinamide] | 0.2
17 | CCOc1nnc(-c2cc(NC(=O)c3cnnc(C(C)(C)C#N)c3)ccc2C)cc1N1CCOCC1 [Example 567, 6-(2-cyanopropan-2-yl)-N-(3-(6-ethoxy-5-morpholinopyridazin-3-yl)-4-methylphenyl)pyridazine-4-carboxamide] | 0.8

Row | SMILES | IC50 [nM]
18 | CCOc1nnc(-c2cc(NC(=O)c3ccnc(C4(C#N)CC4)c3)ccc2C)cc1N1CCOCC1 [Example 568, 2-(1-cyanocyclopropyl)-N-(3-(6-ethoxy-5-morpholinopyridazin-3-yl)-4-methylphenyl)isonicotinamide] | 0.2
19 | CCOc1nnc(-c2cc(NC(=O)c3ccnc(C(C)(C)O)c3)ccc2C)cc1N1CCOCC1 [Example 569, N-(3-(6-ethoxy-5-morpholinopyridazin-3-yl)-4-methylphenyl)-2-(2-hydroxypropan-2-yl)isonicotinamide] | 0.8
20 | CCOc1nnc(-c2cc(NC(=O)c3cnnc(C(F)(F)F)c3)ccc2C)cc1N1CCOCC1 [Example 570, N-(3-(6-ethoxy-5-morpholinopyridazin-3-yl)-4-methylphenyl)-6-(trifluoromethyl)pyridazine-4-carboxamide] | 0.3
21 | CCOc1nnc(-c2cc(NC(=O)c3cccc(C(F)(F)F)c3)cnc2C)cc1N1CCOC[C@@H]1C [Example 571, (S)—N-(5-(6-ethoxy-5-(3-methylmorpholino)pyridazin-3-yl)-6-methylpyridin-3-yl)-3-(trifluoromethyl)benzamide] | 0.8
22 | CCOc1nnc(-c2cc(NC(=O)c3ccnc(C(C)(C)C#N)c3)ccc2C)cc1N1CCOC[C@@H]1C [Example 572, (S)-2-(2-cyanopropan-2-yl)-N-(3-(6-ethoxy-5-(3-methylmorpholino)pyridazin-3-yl)-4-methylphenyl)isonicotinamide] | 1
23 | CCOc1nnc(-c2cc(NC(=O)c3ccnc(C(C)(C)C#N)c3)ccc2C)cc1N1CCOCC1 [Example 573, 2-(2-cyanopropan-2-yl)-N-(3-(6-ethoxy-5-morpholinopyridazin-3-yl)-4-methylphenyl)isonicotinamide] | 0.2
24 | CCOc1nnc(-c2cc(NC(=O)c3ccc(CNC)c(C(F)(F)F)c3)ccc2C)cc1N1CCOCC1 [Example 574, N-(3-(6-ethoxy-5-morpholinopyridazin-3-yl)-4-methylphenyl)-4-((methylamino)methyl)-3-(trifluoromethyl)benzamide] | 0.8
25 | CCNCc1ccc(C(=O)Nc2ccc(C)c(-c3cc(N4CCOCC4)c(OCC)nn3)c2)cc1C(F)(F)F [Example 575, N-(3-(6-ethoxy-5-morpholinopyridazin-3-yl)-4-methylphenyl)-4-((ethylamino)methyl)-3-(trifluoromethyl)benzamide] | 0.9
26 | CCOc1nnc(-c2cc(NC(=O)c3ccc(CN(C)C)c(C(F)(F)F)c3)ccc2C)cc1N1CCOCC1 [Example 576, 4-((dimethylamino)methyl)-N-(3-(6-ethoxy-5-morpholinopyridazin-3-yl)-4-methylphenyl)-3-(trifluoromethyl)benzamide] | 1.1
27 | Cc1ccc(NC(=O)c2ccnc(C(C)(C)F)c2)cc1-c1cc(N2CCOCC2)c(OC2CCOCC2)nn1 [Example 578, 2-(2-fluoropropan-2-yl)-N-(4-methyl-3-(5-morpholino-6-((tetrahydro-2H-pyran-4-yl)oxy)pyridazin-3-yl)phenyl)isonicotinamide] | 0.2
28 | Cc1ccc(NC(=O)c2ccnc(C(C)(F)F)c2)cc1-c1cc(N2CCOCC2)c(OC2CCOCC2)nn1 [Example 579, 2-(1,1-difluoroethyl)-N-(4-methyl-3-(5-morpholino-6-((tetrahydro-2H-pyran-4-yl)oxy)pyridazin-3-yl)phenyl)isonicotinamide] | 0.2
29 | Cc1ccc(NC(=O)c2cc(C(F)(F)F)ccn2)cc1-c1cc(N2CCOCC2)c(OC2CCOCC2)nn1 [Example 580, N-(4-methyl-3-(5-morpholino-6-((tetrahydro-2H-pyran-4-yl)oxy)pyridazin-3-yl)phenyl)-4-(trifluoromethyl)picolinamide] | 0.1
30 | Cc1ccc(NC(=O)c2ccnc(C(C)(C)O)c2)cc1-c1cc(N2CCOCC2)c(OC2CCOCC2)nn1 [Example 581, 2-(2-hydroxypropan-2-yl)-N-(4-methyl-3-(5-morpholino-6-((tetrahydro-2H-pyran-4-yl)oxy)pyridazin-3-yl)phenyl)isonicotinamide] | 0.7
31 | Cc1ccc(NC(=O)c2ccnc(S(C)(=O)=O)c2)cc1-c1cc(N2CCOCC2)c(OC2CCOCC2)nn1 [Example 582, N-(4-methyl-3-(5-morpholino-6-((tetrahydro-2H-pyran-4-yl)oxy)pyridazin-3-yl)phenyl)-2-(methylsulfonyl)isonicotinamide] | 0.2
32 | Cc1ccc(NC(=O)c2cnnc(C(C)(C)C#N)c2)cc1-c1cc(N2CCOCC2)c(OC2CCOCC2)nn1 [Example 583, 6-(2-cyanopropan-2-yl)-N-(4-methyl-3-(5-morpholino-6-((tetrahydro-2H-pyran-4-yl)oxy)pyridazin-3-yl)phenyl)pyridazine-4-carboxamide] | 0.3
33 | Cc1ccc(NC(=O)c2ccnc(C(C)(C)C#N)c2)cc1-c1cc(N2CCOCC2)c(OC2CCOCC2)nn1 [Example 584, 2-(2-cyanopropan-2-yl)-N-(4-methyl-3-(5-morpholino-6-((tetrahydro-2H-pyran-4-yl)oxy)pyridazin-3-yl)phenyl)isonicotinamide] | 0.3
34 | Cc1ccc(NC(=O)c2cc(C(F)(F)F)ccn2)cc1-c1cc(N2CCOCC2)c(OCCO)nn1 [Example 586, N-(3-(6-(2-hydroxyethoxy)-5-morpholinopyridazin-3-yl)-4-methylphenyl)-4-(trifluoromethyl)picolinamide] | 0.2
